Values quoted from earlier work, collected in patent US11395821B2, “Treatment of EGFR-driven cancer with fewer side effects” (G1 Therapeutics, Inc., priority 2017, dated 2022).

Details: all grades; GILOTRIF n=229, pemetrexed/cisplatin n=111; cited from earlier work

**Q.** Which diarrhea does the source give for pemetrexed/cisplatin here?
**A.** 23%

**Q.** What about the dry skin of the same substance?
**A.** 2%

**Q.** What about the paronychia of the same substance?
**A.** 0%

**Q.** What about the pruritus of the same substance?
**A.** 1%

**Q.** And the rash/acneiform dermatitis?
**A.** 11%

**Q.** What about the stomatitis of the same substance?
**A.** 15%
